# Source: PubChem
# RXFP1 antag: antagonists of human relaxin receptor RXFP1; activity change, negative = inhibition, % at 57.5 µM; 0.59% of 350,000 active; Q9HBX9; HEK293-RXFP1, relaxin-stimulated cAMP HTRF, 30 min; hits give low values;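 active means activity change of -60% or lower, but not beyond a set lower limit; inconclusive means change between -60% and -40%, or beyond the set limit; inactive means change above -40%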; further: on the % scale 0 is the no-effect control and ±100 the full control effect
# Mito fusion yeast: blocks mitochondrial division or promotes mitochondrial fusion; AID 485298; S. cerevisiae fusion-defective mutant growth rescue, CellTiterGlo 48 h; 0.23% of 320,000 active; Potency, µM (top dose mostly 46.1 µM), for the others: at the top dose growth rescue (activation), most hits filed as activators; further: potency means the concentration at half of the fitted maximal effect; % of control where 0% means no effect; nearly all actives have a fitted effect of over 45% in size
#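 Read-out: ATP-based luminescence (CellTiterGlo, 10 min ambient) reporting growth of fusion-defective ts yeast after 48 hours at 37C on glycerol/ethanol YPEG medium in the presence of compound.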
# RXFP1 agonist: activates the human relaxin receptor RXFP1 | Q9HBX9 | Potency, µM (doses to about 57.5 µM), for inactives: at the top dose activation, usual class: activators | HEK293T-RXFP1 cAMP TR-FRET, 30 min; response scale: percent of porcine relaxin response, buffer zero | 0.3% of 370,000 active; further: potency means the concentration at half of the fitted maximal effect; on the % scale 0 is the no-effect control and ±100 the full control effect; nearly all actives have a fitted effect of over 60% in size
#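 HEK293 cells stably expressing RXFP1, treated 30 min at 37C with compounds plus PDE4 inhibitor Ro 20174; cAMP measured by HTRF TR-FRET. Normalized to buffer and 29 nM porcine relaxin; EC50 by Hill fit.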
# S-ASM inh: blocks human secretory acid sphingomyelinase. P17405. placental ASM, HMU-PC fluorogenic substrate, 60 min. Potency, µM (highest dose often 57.5 µM), for inactives: at the top dose activity change, negative = inhibition, actives largely listed as inhibitors. 0.006% of 340,000 active. AID 504937; further: potency means the concentration at half of the fitted maximal effect
#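 Human placenta-derived ASM enzyme was preincubated with compound for 10 minutes at room temperature, then given fluorogenic substrate HMU-PC0 (9 uM final) for 60 minutes at 37 °C; a pH 10 stop preceded fluorescence reading at Ex 386/Em 447 nm.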
# ERG Ets-DNA blk: blocks human ERG Ets domain binding to DNA; fluorescence polarization, His-ERG Ets domain / labelled DNA; P11308; 0.028% of 370,000 active; Potency, µM (titrated, usually from 76.9 µM), without a hit: at the highest dose FP activity, negative = inhibition, most hits filed as inhibitors; active means well fitted inhibition curve with a large enough effect in the polarisation, with a control signal flat; inconclusive means small, poorly fitted or top-dose-only effect, or effect the other way, or a change in a side signal; inactive means no such curve, though single readings can be large or run the other way; the % refers to the polarisation;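 further: polarization taken with two DNA probes labelled with fluorescein and Texas red; potency means the concentration at half of the fitted maximal effect; % of control where 0% means no effect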
#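 His-tagged ERG Ets domain (1 uM in the protein solution; 300mM KCl, 50mM Tris-HCl, 1mM EDTA, 1mM DTT, pH 7.5) received compound, then a probe mix of 5 nM fluorescein-DNA and 100nM Texas-615-DNA. Fluorescence polarization was read for both dyes.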
# miR-21 reporter: miR-21 reporter, rising signal | AID 2288 | HeLa miR-21 FLuc reporter, luciferase, 48 h | 340,000 tested, under 10 active | Potency, µM (doses to about 38.3 µM), for inactives: at the top dose reporter change, positive = more light; active = well fitted rising curve with a large enough effect; inconclusive = small, poorly fitted or top-dose-only effect; inactive = no such curve, though single readings can be large or run the other way;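 note: % of control where 0% means no effect; miR-21 action dims this reporter so a rising signal means less miR-21 action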
#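 Compounds were titrated across several concentrations (up to approximately 40 uM) and incubated 48 hours with HeLa miR-21-FLuc reporter cells (miR-21 target sequence downstream of FLuc, endogenous miR-21). Readout was firefly luciferase luminescence after lytic detection reagent.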
# An asterisk follows results filed as active; ? = inconclusive; . = no result given. Most compounds without a hit are left out; they make up all but 0.72% or so of the library. Unless noted, the call rests on the fitted dose curve; in most records, active means well fitted curve in the direction sought with a large enough effect; inconclusive means small, poorly fitted or top-dose-only effect, or another doubt; inactive means no such curve, though single readings can be large; an effect the other way counts as inactive or inconclusive.
# Screens by letter – A = RXFP1 antag; B = Mito fusion yeast; C = RXFP1 agonist; D = S-ASM inh; E = ERG Ets-DNA blk; F = miR-21 reporter
> O=C(/C=C/c1ccc(O)c(O)c1)OCCc1ccccc1
  A = . | B = 2.59µM* | C = . | D = 12.7% | E = -4.4% | F = .
> COc1ccccc1CNC(=O)c1ccc2c(=O)n3c(nc2c1)CCCCC3
  A = -18.8 | B = 1.1% | C = -0.4% | D = 0.2% | E = -3.0% | F = 9.3%
> CCc1ccc(-c2nc3ccc(Br)cc3c(C(=O)O)c2C)s1
  A = -1.3 | B = 18.3% | C = 7.08µM* | D = 108.5% | E = -5.8% | F = 5.4%
> CC1(c2ccccc2)OC(C(=O)O)=CC1=O (stereo unspecified)
  A = -1.3 | B = . | C = . | D = . | E = . | F = .
> CCCCN1C(=O)c2[nH]nc(-c3ccccc3O)c2C1c1cc(Br)c(O)c(OC)c1 (stereo unspecified)
  A = -88.6* | B = . | C = -0.7% | D = . | E = -11.7% | F = -0.7%
> CCc1ccc(C2c3c(-c4ccccc4O)n[nH]c3C(=O)N2Cc2ccncc2)cc1 (stereo unspecified)
  A = -82.7* | B = . | C = -0.9% | D = . | E = 2.5% | F = 2.4%
> CC1CCCC(NC(=O)CN2C(=O)NC(c3ccccc3)(c3ccccc3)C2=O)C1C (stereo unspecified)
  A = -11.3 | B = 5.6% | C = -0.8% | D = -0.6% | E = 3.2% | F = .
> Cc1ccc(C)c(NS(=O)(=O)c2ccc3c4c(cccc24)C(=O)N3)c1
  A = -78.7* | B = . | C = 0.4% | D = . | E = -2.3% | F = ?
> Cc1coc2ccccc2c1=O
  A = -2.1 | B = . | C = . | D = . | E = . | F = .
> Cc1ccc(C(C)C)c(OCc2ccc(C(=O)N/N=C/c3ccc(O)cc3O)cc2)c1
  A = -15.0 | B = -2.0% | C = 0.0% | D = 5.7% | E = 0.8% | F = ?

# Continued.
# Screens by letter – A = RXFP1 antag; B = Mito fusion yeast; C = RXFP1 agonist; D = S-ASM inh; E = ERG Ets-DNA blk; F = miR-21 reporter
> Cc1ccc(C(C)C)c(OCc2ccc(C(=O)N/N=C/c3ccc(C(=O)O)cc3)cc2)c1
  A = -68.5* | B = -12.3% | C = 0.0% | D = 7.1% | E = 1.4% | F = 10.6%
> CCS(=O)(=O)c1nc(S(=O)(=O)c2ccc(C)cc2)c(N2CC(C)OC(C)C2)s1 (stereo unspecified)
  A = -14.5 | B = 1.3% | C = 28.2µM* | D = 0.3% | E = -1.9% | F = 9.5%
> C/C(=N\O)[C@@H](C)NCC(C)(C)CN[C@H](C)/C(C)=N/O
  A = 35.8 | B = . | C = . | D = . | E = . | F = .
> CCCCCCn1c(=O)c2c(ncn2C)n(C)c1=O
  A = -12.5 | B = . | C = . | D = . | E = . | F = .
> Cc1ccc(N/C(N)=N/c2nc(C)cc(N3CCCCC3)n2)c(C)c1
  A = -83.0* | B = -7.0% | C = 0.4% | D = -3.6% | E = 10.7% | F = ?
> Cc1ccc(N/C(N)=N/c2nc3c(c(=O)[nH]2)CCCC3)c(C)c1
  A = 8.8 | B = -0.2% | C = 1.1% | D = 4.3% | E = . | F = -7.6%
> O=C(c1cnc(N2CCCCC2)c2ccccc12)N1CCN(c2ccc(Cl)cc2)CC1
  A = ? | B = . | C = -0.3% | D = . | E = -10.7% | F = 15.9%
> Cc1ccc(Cl)cc1N1CCN(C(=O)c2cnc(N3CCOCC3)c3ccccc23)CC1
  A = -81.9* | B = . | C = -1.0% | D = . | E = 9.3% | F = ?
> Cc1ccc(N2CCN(C(=O)c3cnc(N4CCCCC4)c4ccccc34)CC2)c(C)c1
  A = -69.9* | B = . | C = 2.4% | D = . | E = -3.2% | F = 10.2%
> CN(C)CCNC(=O)c1ccc(Cn2c(=O)c3cccn3c3cccnc32)cc1
  A = -2.5 | B = . | C = 4.3% | D = . | E = 6.5% | F = -10.8%

# The results go on.
# Screens by letter – A = RXFP1 antag; B = Mito fusion yeast; C = RXFP1 agonist; D = S-ASM inh; E = ERG Ets-DNA blk; F = miR-21 reporter
> O=C(COc1cccc(Cl)c1)N/N=C\c1cc2ccccc2nc1Cl
  A = . | B = -2.8% | C = 2.8% | D = 94.1% | E = -1.0% | F = -0.1%
> O=C(CNc1ccc2ccccc2c1)N/N=C/c1cc2ccccc2nc1Cl
  A = -25.2 | B = 14.1µM* | C = 0.1% | D = -12.0% | E = -4.4% | F = -24.8%
> NC(=O)CCn1c2ccccc2c2ccccc21
  A = -2.8 | B = -4.6% | C = 0.6% | D = -2.5% | E = -1.8% | F = -1.5%
> CC(C)CCn1c2ccccc2c2cc(CC(N)=O)ccc21
  A = -72.4* | B = -11.2% | C = 0.4% | D = -0.1% | E = 3.3% | F = 0.2%
> Cn1c(=O)c([N+](=O)[O-])c(-n2ccnc2)c2ccccc21
  A = -110.1* | B = -2.5% | C = 1.6% | D = -2.6% | E = -2.4% | F = ?
> Cc1cc(C)c2nc(N(CCCN(C)C)C(=O)c3ccc4c(c3)CCCC4)sc2c1
  A = -38.1 | B = -11.5% | C = -0.6% | D = -17.0% | E = -9.8% | F = .
> CN(C)CCCN(C(=O)c1ccc2c(c1)CCCC2)c1nc2c(F)cccc2s1
  A = -74.0* | B = -7.3% | C = 2.0% | D = -5.5% | E = -3.6% | F = -35.4%

# Mito fusion yeast: what is marked active above.
Molecule	RXFP1 antag	Mito fusion yeast	S-ASM inh	ERG Ets-DNA blk	miR-21 reporter
O=C(/C=C/c1ccc(O)c(O)c1)OCCc1ccccc1	.	2.59µM*	12.7%	-4.4%	.
O=C(CNc1ccc2ccccc2c1)N/N=C/c1cc2ccccc2nc1Cl	-25.2	14.1µM*	-12.0%	-4.4%	-24.8%
